# Legend:
# Huh-7.5.1 cells = assay: Cell viability in the chemical screen (Cell TiterGlo); conditions: 10 µM compound, 72 h
# 18f-NLuc reporter virus = assay type: cell-based, Hepatitis A virus
substance,measurement,setting,value
Interferon-γ,Viability Percent DMSO,Huh-7.5.1 cells,78 Percent DMSO
same,Normalized HAV production,18f-NLuc reporter virus,0.14
